Ab-95 light chain CDR variants: yeast mating affinities

Reference: Engelhart et al. 2022, doi:10.1038/s41597-022-01779-4. File: FLAb, binding data.

Antigen: PDVDLGDISGINAS, a 14-residue peptide of the SARS-CoV-2 spike HR2 region.

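The parent was found by panning a naive human phage display library on the peptide. Variants in AAYL52 differ from the parent at up to three CDR positions; double and triple changes were sampled at random. The scFvs were displayed on barcoded MATa yeast, the peptide on MATalpha yeast. After mating in shaken culture at 30 °C for 16 h, diploids were selected and their barcode pairs sequenced. Read counts were normalised to the haploid input and turned into Kd by a linear fit to BCL2-family pairs of known affinity, for each replicate. Each pool was mated in three replicate cultures.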

The variants keep the heavy chain, the linker and the frameworks of Ab-95 (scFv order VH, the linker GGGGSGGGGSGGGGS, VL).
VH: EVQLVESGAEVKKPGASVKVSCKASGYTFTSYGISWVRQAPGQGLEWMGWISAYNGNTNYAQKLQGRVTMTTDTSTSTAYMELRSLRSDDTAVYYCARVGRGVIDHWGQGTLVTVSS
VL: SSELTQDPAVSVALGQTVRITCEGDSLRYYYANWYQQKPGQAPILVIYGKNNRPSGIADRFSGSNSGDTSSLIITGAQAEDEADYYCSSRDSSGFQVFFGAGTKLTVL

Variants are written as CDR1, CDR2 and CDR3 of the light chain (limits as in the source). Parent: EGDSLRYYYAN, GKNNRPS, SSRDSSGFQVF. Scale: log10 of Kd in nM, estimated from mating counts; low values are strong binders. "n.d." marks a missing value. The strain was present, yet no cells mated with the target were sequenced in that replicate, which points to weak or no binding. For reference, the parent read 2.31 as the reference entry and 2.25 as a member of this library. Three control strains display no target. For library AAYL52, 28% of the pairings with them gave a signal, with a median of 3.91 and one signal in twenty below 2.90, so weak values seen in few replicates may be background. For each scFv, signals with the empty controls are counted beside the result, with their mean in brackets.

{"CDR-L1": "EGLSLRYYYAR", "CDR-L2": "GKNNRPS", "CDR-L3": "SSRDSSTFQVF", "replicates, log10 nM": "n.d. n.d. 2.41", "empty controls": "0/9"}
{"CDR-L1": "EGDMLRYYYAN", "CDR-L2": "GKNNRPS", "CDR-L3": "GSRHSSGFQVF", "replicates, log10 nM": "4.76 n.d. 4.10", "empty controls": "4/9 (3.87)"}
{"CDR-L1": "EGDSLRYYYAN", "CDR-L2": "GKNNRPS", "CDR-L3": "SMRDPSGFQDF", "replicates, log10 nM": "3.40 4.04 n.d.", "empty controls": "1/9 (3.94)"}
{"CDR-L1": "EGDSKRYYYAN", "CDR-L2": "GKNNRPC", "CDR-L3": "CSRDSSGFQVF", "replicates, log10 nM": "4.55 n.d. n.d.", "empty controls": "2/9 (3.05)"}
{"CDR-L1": "DGDSLRYYYAN", "CDR-L2": "GVNNRPS", "CDR-L3": "SSRDSSGRQVF", "replicates, log10 nM": "2.19 2.00 2.32", "empty controls": "4/9 (4.26)"}
{"CDR-L1": "AGDSLRGYYAN", "CDR-L2": "GKNNRPS", "CDR-L3": "SSRDSSGFQVF", "replicates, log10 nM": "1.30 1.18 0.86", "empty controls": "5/9 (4.32)"}
{"CDR-L1": "EGDSLRYYYAN", "CDR-L2": "TKANRPC", "CDR-L3": "SSRDSSGFQVF", "replicates, log10 nM": "n.d. n.d. n.d.", "empty controls": "0/9"}
{"CDR-L1": "EGDSQRYYYAN", "CDR-L2": "GKNNRPS", "CDR-L3": "SYRDSSGFQVF", "replicates, log10 nM": "n.d. 4.38 2.38", "empty controls": "2/9 (3.30)"}
{"CDR-L1": "EGDSLRHYYAN", "CDR-L2": "GKNNRPS", "CDR-L3": "SSRDVSGFVVF", "replicates, log10 nM": "4.03 2.94 3.17", "empty controls": "4/9 (4.00)"}
{"CDR-L1": "EGDSLRYYYAN", "CDR-L2": "GKNNRPS", "CDR-L3": "SSRDASGHQYF", "replicates, log10 nM": "3.09 3.53 n.d.", "empty controls": "4/9 (3.98)"}
{"CDR-L1": "EGQHLRYYYAN", "CDR-L2": "GKNNRPS", "CDR-L3": "SIRDSSGFQVF", "replicates, log10 nM": "3.11 2.83 3.57", "empty controls": "1/9 (4.58)"}
{"CDR-L1": "ESDSLRYYYAN", "CDR-L2": "GDNNRPS", "CDR-L3": "SSRDSSGFQVF", "replicates, log10 nM": "2.10 2.05 1.99", "empty controls": "3/9 (4.39)"}
{"CDR-L1": "EYDSLRYYYAN", "CDR-L2": "GKNNRPS", "CDR-L3": "ASRDSSGFQVR", "replicates, log10 nM": "2.26 1.95 1.94", "empty controls": "5/9 (4.09)"}
{"CDR-L1": "EGDSLRYYYAN", "CDR-L2": "GKNNRPS", "CDR-L3": "SSRDFSGMQMF", "replicates, log10 nM": "2.83 2.35 2.23", "empty controls": "1/9 (3.02)"}
{"CDR-L1": "MGDSLRYLYAN", "CDR-L2": "GKNNRPS", "CDR-L3": "SSRDSSGFSVF", "replicates, log10 nM": "3.10 3.65 2.47", "empty controls": "5/9 (3.90)"}
{"CDR-L1": "EGDSSRMYYAN", "CDR-L2": "GKNNRPS", "CDR-L3": "SSRDSSGSQVF", "replicates, log10 nM": "2.95 2.97 2.58", "empty controls": "5/9 (4.03)"}
{"CDR-L1": "EGDSLRYNYAN", "CDR-L2": "QKCNRPS", "CDR-L3": "SSRDSSGFQVF", "replicates, log10 nM": "1.81 1.92 2.17", "empty controls": "2/9 (3.86)"}
{"CDR-L1": "EGDSLRVYYAN", "CDR-L2": "GKYNRPS", "CDR-L3": "SSRVSSGFQVF", "replicates, log10 nM": "n.d. 5.35 n.d.", "empty controls": "1/9 (4.01)"}

A selection of 2 entries from above:

CDR-L1	CDR-L2	CDR-L3	replicates, log10 nM	empty controls
EGDMLRYYYAN	GKNNRPS	GSRHSSGFQVF	4.76 n.d. 4.10	4/9 (3.87)
DGDSLRYYYAN	GVNNRPS	SSRDSSGRQVF	2.19 2.00 2.32	4/9 (4.26)